# MC4R barr agon = activates human MC4R beta-arrestin recruitment; U2OS MC4R beta-arrestin complementation, luminescence; percent of melanotan II response, DMSO zero; actives 0.98% (n = 360,000); activation, % at 8.9 µM;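 active means activation above a per-plate cutoff, the mean activation of sample wells on that plate plus 3 SD, cut at about 8% in these data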
# HDAC3 inh = inhibitors of human histone deacetylase 3 | recombinant HDAC3, fluorogenic peptide/trypsin coupled, fluorescence | inhibition, % at 8.3 µM | actives 0.15% (n = 320,000) | AID 2718; in the data active means inhibition above about 26%, passing the limit was not always enough
# NALP1 yeast inh = inhibitors of NALP1 inflammasome in yeast; S. cerevisiae NALP1/ASC/caspase-1 growth, X-gal OD620, 72 h; inhibition, % at 10 µM; actives 0.61% (n = 280,000); AID 2071; in the data active means inhibition mostly above about 24%, no sharp cut-off; inactive means mostly below about 32%
# MC4R antagonist = blocks human MC4R cAMP signaling; P32245; MC4R-expressing cells, MTII-stimulated cAMP, LANCE TR-FRET; inhibition, % at 6.5 µM; actives 0.48% (n = 360,000); AID 540295;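 active means inhibition above its plate's cutoff, the mean of tested wells on that plate plus 3 SD, cut at about 29% in these data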;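 further: 0% = Melanotan II alone and 100% = Melanotan II plus saturating MCL0020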
#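 system = U2OS cells with stable human MC4R expression | also added = Melanotan II challenge after compound preincubation | dosing = one concentration, 6.5 µM nominal | incubation = compound 30 min, challenge 1 h, detection 1 h | measured by = TR-FRET with Eu-cAMP and labeled anti-cAMP, 671 nm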
# Yeast UUG start = yeast start codon fidelity modulation; activity score, % at 18.7 µM; actives 0.13% (n = 350,000); S. cerevisiae UUG-firefly luciferase reporter, luminescence/redox ratio; AID 602363;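 active means replicate mean at a twofold rise or more, about +100% in these data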;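 further: firefly luciferase made from a UUG start codon reports start codon fidelity; reporter light over untreated wells divided by growth signal over untreated wells; some hits fall short of that in this replicate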
# ALR H2O2 inh = inhibitors of human ALR sulfhydryl oxidase, primary screen, biochemical, H2O2 detection, HRP-luminol luminescence, single point. inhibition, % (concentration not given with the values). 290,000 compounds, 3.8% hits. purified ALR, DTT oxidation. AID 485317, 2010;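 active means mean and each replicate at 75% or more; inconclusive means only one of the two met; inactive means neither met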;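 further: stock transfer was 7.5 nL into about 7.5 µL; 0% = neutral wells and 100% = wells with inactivated enzyme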
# Numbers without * were called inactive; nt = no result. This is a sample that favours compounds with a hit; in the whole collection about 4.2% have one here.
# Fields: MC4R barr agon, HDAC3 inh, NALP1 yeast inh, MC4R antagonist, Yeast UUG start, ALR H2O2 inh
- CCOCCc1c(O)nc(SCC(=O)N2CCOCC2)[nH]c1=O
→ -2, 5, 4, -1, -9, 85*
- CC(C)NC(=O)N(C)C[C@H]1Oc2ccc(NS(=O)(=O)c3ccc(F)cc3)cc2CC(=O)N([C@@H](C)CO)C[C@@H]1C
→ nt, nt, nt, nt, -3, nt
- COc1ccc(NC(=O)N(C)C[C@@H]2Oc3ccc(NC(=O)Cc4ccccc4)cc3C(=O)N([C@@H](C)CO)C[C@@H]2C)cc1
→ nt, nt, nt, nt, 2, nt
- C[C@@H]1CN([C@H](C)CO)S(=O)(=O)c2ccc(C#CCN(C)C)cc2O[C@H]1CN(C)C(=O)C1CC1
→ nt, nt, nt, nt, 38, nt
- CCCOC(=O)c1c(NC(=O)CSc2nc(-c3ccco3)cc(C(F)(F)F)n2)sc(C(=O)OC)c1C
→ 1, -4, 41*, 4, -13, -16
- COc1ccc(CN(C)C[C@H]2OCCCC[C@H](C)Oc3ccc(NC(=O)NC(C)C)cc3C(=O)N([C@H](C)CO)C[C@H]2C)cc1
→ nt, nt, nt, nt, 18, nt
- COc1cccc(N2CC(=O)N(c3cccc(OC)c3)CC2=O)c1
→ -3, 1, -27, -6, nt, -6
- COc1cccc(-n2cnc3cccc(N)c32)c1
→ 3, 7, 27, 0, -9, 87*
- COc1ccc(CN(C)C[C@@H]2Oc3c(NS(=O)(=O)c4ccc(OC)cc4)cccc3C(=O)N([C@H](C)CO)C[C@H]2C)cc1
→ nt, nt, nt, nt, 11, nt
- O=C(C[C@@H]1C[C@@H]2c3cc(NC(=O)CC4CC4)ccc3O[C@@H]2[C@@H](CO)O1)NCc1ccccc1F
→ nt, nt, nt, nt, -7, nt

# (next part)
# Fields: MC4R barr agon, HDAC3 inh, NALP1 yeast inh, MC4R antagonist, Yeast UUG start, ALR H2O2 inh
- CC(C)(C)NC(=O)C(Cc1ccccc1)NS(=O)(=O)c1ccc2c(c1)CCC(=O)N2 (stereo not given)
→ -2, -9, 20, 2, 6, 98*
- O=C1CCc2cc(S(=O)(=O)NC(Cc3ccccc3)C(=O)NC3CCCCC3)ccc2N1 (stereo not given)
→ 0, -4, 0, 12, -12, 8
- Cn1c(=O)c2[nH]c(N=Nc3ccc(N)cc3N)nc2n(C)c1=O
→ 0, -9, 7, -10, nt, 86*
- CC(C)(C)c1ccc(OCCCC(=O)NC2=NCCS2)cc1
→ -1, -1, 36*, 2, -6, -6
- CC(C)(C)c1ccc(C(=O)NCCC(=O)NC2=NCCS2)cc1
→ -1, 7, nt, -8, -13, 0
- N#Cc1nc(-c2cccc3ccccc23)oc1NCCN1CCOCC1
→ 0, -105, 10, 9, -1, 70
- N#Cc1nc(-c2ccccc2F)oc1NCCN1CCOCC1
→ -1, -22, -2, 2, -2, 96*
- Cc1ccc(-c2nc(C#N)c(NCCN3CCCCC3)o2)cc1
→ -3, -86, 11, 6, -7, 92*
- N#Cc1nc(-c2ccc(F)cc2)oc1NCCN1CCOCC1
→ 1, -24, 22, 11, -18, 65
- Cc1noc(C)c1S(=O)(=O)N(C)C[C@@H]1OCCCC[C@@H](C)Oc2ccc(NC(=O)NC3CCCCC3)cc2C(=O)N([C@H](C)CO)C[C@@H]1C
→ nt, nt, nt, nt, -1, nt

# Remaining list, next part.
# Fields: MC4R barr agon, HDAC3 inh, NALP1 yeast inh, MC4R antagonist, Yeast UUG start, ALR H2O2 inh
- Cc1cccc(OCC(=O)Nc2nc3ccc([N+](=O)[O-])cc3s2)c1
→ 1, -1, 7, 7, nt, nt
- CCC(=O)Nc1nc2ccc(S(C)(=O)=O)cc2s1
→ -3, 2, -10, 2, -18, -3
- CCCC(=O)Nc1nc2ccc(S(N)(=O)=O)cc2s1
→ 0, -6, 17, -2, -23, 99*
- CCOCC(=O)Nc1nc2ccc(C)cc2s1
→ 4, 7, -92, 18, -20, 97*
- Cc1cccc(OCC(=O)Nc2nc3ccc([N+](=O)[O-])cc3s2)c1C
→ 9.1*, 0, 8, 17, -8, -7
- Cc1ccc2nc(NC(=O)CSc3nncc(=O)n3N)sc2c1
→ 0, -1, 3, 4, -11, 99*
- CC(C)NC(=O)N(C)C[C@H]1Oc2ncc(C#Cc3ccncc3)cc2C(=O)N([C@@H](C)CO)C[C@@H]1C
→ nt, nt, nt, nt, 3, nt
- COc1ccc(NC(=O)Nc2ccc3c(c2)C(=O)N([C@@H](C)CO)C[C@@H](C)[C@H](CN(C)C(=O)Nc2ccc(OC)cc2)O3)cc1
→ nt, nt, nt, nt, -5, nt
- O=C(C[C@@H]1CC[C@@H](NS(=O)(=O)c2cccc(F)c2)[C@@H](CO)O1)N1CCCCC1
→ nt, nt, nt, nt, -8, nt
- CCn1c(=O)cc(SCC(=O)NCc2cccnc2)c2ccccc21
→ -2, 6, 10, 9, -1, -3

# The listing continues:
# Fields: MC4R barr agon, HDAC3 inh, NALP1 yeast inh, MC4R antagonist, Yeast UUG start, ALR H2O2 inh
- CCn1c(=O)cc(SCC(=O)NCc2ccco2)c2ccccc21
→ -2, -5, -3, -16, 5, 4
- CCn1c(=O)cc(SCC(=O)NCCCN2CCC(C)CC2)c2ccccc21
→ -2, 0, 7, 0, nt, -5
- CCn1c(=O)cc(SCC(=O)NCc2ccc(C)o2)c2ccccc21
→ -1, 1, 22, -17, -1, 98*
- CCn1c(=O)cc(SCC(=O)NCc2ccccn2)c2ccccc21
→ 0, -3, -20, -1, 13, 98*
- CCn1c(=O)cc(SCC(=O)NCCCN2CCN(c3ccc(F)cc3)CC2)c2ccccc21
→ -1, -5, 2, -3, -9, 96*
- CCC(=O)N[C@H]1CC[C@H](CCn2cc(CN(C)C)nn2)O[C@@H]1CO
→ nt, nt, nt, nt, -6, nt
- O=C(C[C@@H]1CC[C@@H](NC(=O)Nc2ccc(C(F)(F)F)cc2)[C@@H](CO)O1)NCCN1CCCC1
→ nt, nt, nt, nt, 3, nt
- Cc1nc(NCc2ccco2)c2c(C)c(C)sc2n1
→ -1, 3, 6, -5, -8, 97*
- Cc1sc2nc(SCC(=O)C(C)(C)C)n(Cc3ccco3)c(=O)c2c1C
→ -3, 3, 9, -20, -15, -7
- Cc1sc2nc3c4ccccc4c(NCc4ccco4)nn3c(=O)c2c1C
→ -1, -17, -4, 7, -9, 98*

# An excerpt from further up:
# Fields: MC4R barr agon, HDAC3 inh, NALP1 yeast inh, MC4R antagonist, Yeast UUG start, ALR H2O2 inh
- CCC(=O)N[C@H]1CC[C@H](CCn2cc(CN(C)C)nn2)O[C@@H]1CO
→ nt, nt, nt, nt, -6, nt
- O=C(C[C@@H]1CC[C@@H](NC(=O)Nc2ccc(C(F)(F)F)cc2)[C@@H](CO)O1)NCCN1CCCC1
→ nt, nt, nt, nt, 3, nt
- Cc1nc(NCc2ccco2)c2c(C)c(C)sc2n1
→ -1, 3, 6, -5, -8, 97*
- Cc1sc2nc(SCC(=O)C(C)(C)C)n(Cc3ccco3)c(=O)c2c1C
→ -3, 3, 9, -20, -15, -7
- Cc1sc2nc3c4ccccc4c(NCc4ccco4)nn3c(=O)c2c1C
→ -1, -17, -4, 7, -9, 98*

# More entries.
# Letter code – A = MC4R barr agon; B = HDAC3 inh; C = NALP1 yeast inh; D = MC4R antagonist; E = Yeast UUG start; F = ALR H2O2 inh
Cc1sc2ncnc(N(C)Cc3ccco3)c2c1C
  A: -2 | B: 7 | C: 10 | D: -3 | E: -12 | F: -4

Cc1sc2ncnc(SCc3ccco3)c2c1C
  A: 0 | B: 0 | C: 15 | D: -7 | E: -15 | F: 91*

Fc1ccc(Br)cc1C1C=C(c2ccc(Br)s2)Nc2ncnn21 (stereo not given)
  A: -1 | B: -8 | C: 26 | D: 11 | E: -1 | F: 88*

Oc1cccc(N2Cc3ccccc3C2)c1
  A: -1 | B: 1 | C: 0 | D: 4 | E: -7 | F: -26

Oc1ccc(N2Cc3ccccc3C2)cc1
  A: 0 | B: -3 | C: 6 | D: 18 | E: -12 | F: 84*

O=C(O)Cc1ccc2ccc3ccccc3c2c1
  A: -1 | B: 2 | C: nt | D: -6 | E: -5 | F: -2

O=C(O)Cc1ccc(O)c(O)c1
  A: -2 | B: -6 | C: -6 | D: -3 | E: -26 | F: 98*

C=CCn1c(CCC(O)COCCCCC)n[nH]c1=S (stereo not given)
  A: 0 | B: 11 | C: -22 | D: 7 | E: -19 | F: 96*

C=CCn1c(C(CCCC)CC(O)COCCC)n[nH]c1=S (stereo not given)
  A: 0 | B: -5 | C: -14 | D: 14 | E: nt | F: 92*

C=CCn1c(C(CCCC)CC(O)COCC(C)C)n[nH]c1=S (stereo not given)
  A: 0 | B: 9 | C: 4 | D: 1 | E: -8 | F: 14

# From PubChem BioAssay
